Data set [1] has as its system M6P/IGFII receptor expressing NIH/3T3 fibroblasts. Put plainly: Binding of PTX-cisULS-M6PHSA to fibroblasts. To be noted: for binding by anti-HSA immunodetection: 1 mg/ml, 4 h at 37°.
For data set [2], the system named is hepatic fibrosis in BDL rats. Put plainly: Antifibrotic effect of losartan-cisULS-M6PHSA in BDL model of liver fibrosis. The conditions noted are these: four daily doses. Type of data set: in vivo.
Data set [3] concerns culture activated HSC or liver slices from fibrotic rat livers. Put plainly: Gene expression of fibrotic markers by real-time quantitative RT-PCR. The class given is cell-based. The conditions noted are these: PTKI 10 μM or corresponding M6PHSA 0.1 mg/ml. The protocol: FIG. 6. Effects of PTKI-cisULS-M6PHSA on culture activated HSC (panel A) or liver slices from fibrotic rat livers (bileduct ligated rats, 3 weeks after ligation; panel B). Concentrations denote the amount of PTKI (10 μM) or the corresponding amount of M6PHSA carrier (0.1 mg/ml). Gene expression levels were normalized to the expression of GAPDH and subsequently normalized to the relative expression of control cells or slices.
The activity of PTKI and the cell targeting complex made thereof was studied by determination of gene-expression levels of fibrotic markers, which were analyzed by real-time quantitative RT-PCR.

Data set [4] concerns activated hepatic stellate cells (HSC). Briefly: Immunohistochemical staining of fibrosis markers in HSC after 24 h incubation. The conditions noted are these: for morphology of the stellate cells: conjugates 1 mg/ml. The class given is cell-based. On the procedure:
The pharmacological effects of the conjugates were tested on different cultured cell types, e.g. activated hepatic stellate cells (HSC), kidney tubular cells (HK-2 cells) or human umbilical cord endothelial cells (HUVEC). Typically, cells were incubated for 24 h at 37° C. with the conjugates. Subsequently, the cells were subjected to analyses related to pharmacological activity of the coupled drug (gene expression analysis, immunohistochemcial evaluation of effect markers), or assays related to potential cytotoxicity of the complexes (cell viability assays, apoptosis assays).
FIG. 5. Effects of PTX-cisULS-M6PHSA on fibrosis markers collagen I and α-smooth muscle actin. HSC were incubated with PTX-cisULS-HSA, PTX-cisULS-M6PHSA (both at 1 mg/ml, equivalent to 100 μM PTX,) or 1 mM non-targeted PTX. Cells were stained for collagen type I or α-smooth muscle actin and counterstained with hematoxillin. Panel A,B) controls; panel C,D) PTX-cisULS-HSA; panel E,F) PTX-cisULS-M6PHSA; panel G,H) non-targeted PTX. Magnification 10×. One of the hallmarks of liver fibrosis is the induced expression and production of a-smooth muscle actin (aSMA) and collagen type 1 by activated HSC. These proteins were therefore selected as read-out parameters of the antifibrotic effects of the targeted PTX. […] Especially after staining of the abundantly present aSMA, the changes in the structure of the cells became clearly visible (panel F). HSC reacted to the treatment of PTX-cisULS-M6PHSA with a loss of cytoplasmic volume, rounded cell shape and detachment of the cells from the surface of the plates. These effects were not observed after incubation with equivalent concentrations of PTX-HSA (panel C,D).

Data set [5] can be described thus: Drug release studies (stability of drug-carrier linkage). Type of data set: in vitro ADME. On the procedure: The stability of the drug-carrier linkage was investigated by incubating cell targeting complexes at 37° C. under several conditions, e.g. buffers, buffers spiked with drug releasing substances or biological media. Typically, released drug was analyzed by HPLC and expressed as percentage of the total amount of conjugated drug/targeting complex.

Data set [6] in a line: Organ distribution of PTX-cisULS-M6PHSA in BDL rats. To be noted: BDL3 rats.
The subject of data set [7] is endothelial cells (HUVEC). Briefly: Binding of 89Zr-radiolabeled RGD-equipped complex to endothelial cells. Also noted: species or system human. To be noted: for displacement of binding of RGDPEG-SB202190-cisULS-HSA: 4° C. for 4 h. On the procedure:
The interaction of cell targeting complexes with target cells was investigated in cultured target cells. Typically, in vitro targeting studies were performed by incubating target cells with the complexes, at either 4° C. or 37° C. Binding and/or internalization of the complexes by target cells was detected by either immunohistochemical staining for the complex (e.g. anti-HSA or anti-LZM staining) or by quantification of a radioactive reporter group that had been introduced in the complex (e.g. ^125I). Representative examples of targeting studies are depicted in FIGS. 15-17.
Binding of RGD-equipped complexes to endothelial cells was studied using ^89Zr-radiolabeled compounds.

In data set [8] the test system is IL8 gene expression in HUVEC treated with TNF. Briefly: IL8 gene expression in TNF-treated HUVEC. Type of data set: cell-based, human. To be noted: 24 h preincubation.
Data set [9] concerns hepatic fibrosis in CCl4 rats. Put plainly: Antifibrotic effect of losartan-cisULS-M6PHSA in CCl4 inhalation model. Type of data set: in vivo.
The conditions of data set [10]: rat, in vivo.
For data set [11] the following is noted: rat, in vivo. The protocol:
The extraction was performed by adding 3 ml of methyl butyl ether to 200 μl of liver homogenate and vortexing for 5 min. Layers were separated by centrifugation at 900×g for 5 min and the aqueous layer was frozen in liquid nitrogen. The upper organic layer was transferred to another borosilicate glass tube and evaporated completely at 60° C. The extraction procedure was repeated twice and the total residue was reconstituted in 200 μl of mobile phase. Chromatography was carried out using a C18 (C18, 5 μm, 4.6×150 mm) reversed-phase column (Surefire, Waters Inc., Milford, Mass., USA) at 40° C. with an isocratic mobile phase consisting of acetonitrile-water-trifluoroacetic acid (30:70:0.1, v/v/v; pH 2.0).
This is another data set of the same source.

[12] abbreviates: conjugates 1 mg/ml (100 μM PTX), non-targeted PTX 1 mM.

For the substance “M6PHSA: carrier protein mannose-6-phosphate modified human serum albumin [reference compound]”, the “displacement of radiolabeled PTX-cisULS-M6PHSA binding” value in data set [1] (excess of unlabeled competitor) is “binding could be displaced by excess of unlabeled M6PHSA”. Moreover, in data set [2], the “hepatic fibrosis, Sirius Red staining” value is reported as “Severe bridging”; the “infiltration by CD43-positive cells” value is on record as “intense infiltration by CD43-positive cells”; the “αSMA-positive cells in liver” value was “marked accumulation of αSMA-positive cells”. Besides, the “gene-expression levels of fibrotic markers” value in [3] is given as “did not affect the investigated genes”.
As to PTX-HSA, the “morphology of the stellate cells” value in data set [4] was “not observed”. The “collagen type I staining” value in data set [4] (setting [12]) is “not observed”. In addition, the “binding by anti-HSA immunodetection” value in [1] was “did not bind to the cells”.
Consider “PTX-cisULS-M6PHSA: PTX conjugated via cisULS to M6PHSA, 5-8 drug molecules per M6PHSA”, for which, in [5] (24 h at 37° C., environment that resembles intracellular conditions), the “Release of PTX from conjugate” value is listed as “drug was released in an environment that resembles intracellular conditions”. Moreover, the Drug release profile entry in data set [5] (incubation at 37° C. in serum/PBS 1:1) is “only slowly released drug in serum”. Further, the “morphology of the stellate cells” value in data set [4] was “pronounced changes in the morphology of the stellate cells”. In data set [4] (setting [12]), the aSMA staining intensity result was “not affected” and the “collagen type I staining” value is recorded as “affected the collagen type I expression after 24 h of incubation considerably”. Also, the “binding by anti-HSA immunodetection” value in data set [1] is “demonstrated binding”. Further, the “binding of 125I-radiolabeled complex to cells” value in data set [1] (tracer dose, 4 h at 37° C.) is given as “bound to the cells”. For the same substance, the “cellular localization in liver (anti-HSA / anti-desmin)” value in data set [6] (2 mg/kg) is reported as “bound specifically to HSC”. In addition, in [6] (i.v. tracer dose, 10 minutes), the “accumulation in other organs” value was “No accumulation in other organs was observed” and the “distribution to the fibrotic liver” value is recorded as “rapid distribution”.
Regarding “RGD-PEG-HSA: HSA with RGD peptide attached via VNS-PEG-NHS linker; carrier without drug”, the “displacement of binding of RGDPEG-SB202190-cisULS-HSA” value in data set [7] is “could be displaced”. The “IL8 gene expression” value in [8] was “did not reduce IL8 gene expression”.
As for “SB202190-cisULS-HSA: SB202190-cisULS coupled to HSA, 5-8 drug molecules per HSA”, the “displacement of binding of RGDPEG-SB202190-cisULS-HSA” value in [7] was “did not affect the interaction between complex and target cells”.
For “SB202190-cisULS-RGDPEG-HSA: SB202190-cisULS-HSA modified with PEG and RGD-peptide groups”, the “accumulation of the complex in cells” value in [7] (37° C.) is “increased in time”. For the same substance, the “IL8 gene expression” value in data set [8] was “inhibition of this gene although to a lesser extent”.
With “losartan-cisULS-M6PHSA: losartan conjugated via cisULS to M6PHSA, approximately 7 losartan per protein”, the “αSMA-positive cells in liver” value in [9] (CCl4 animals) was “less accumulation of αSMA-positive cells”. The “deposition of collagen in the liver, Sirius Red staining” value in [9] (CCl4 rats) was “markedly reduced”. Further, in data set [2], the “hepatic fibrosis, Sirius Red staining” value was “fewer areas with collagen accumulation”; the “infiltration by CD43-positive cells” value was “reduced the number of CD43 infiltrating leukocytes”; the “αSMA-positive cells in liver” value is recorded as “marked reduction in αSMA-positive cells”. Also, the “anti-HSA staining in other organs” value in data set [10] was “negative”. For the same substance, in data set [11], the “co-localization in liver (anti-HSA and anti-desmin)” value is recorded as “co-localized with stellate cells”; the “liver / HSC distribution” value is given as “preferential liver distribution”. In [11] (iv, 3.3 mg/kg/day), the “anti-HSA immunostaining in liver” value is recorded as “prominently detected in the liver” and the “anti-HSA immunostaining in lung, spleen, heart, kidney” value is “not detected”.

The values are drawn from patent publication US20110104103A1, “Method of conjugating therapeutic compounds to cell targeting devices via metal complexes” (KREATECH BIOTECHNOLOGY B.V., priority 2005, published 2011).
